Each structure is given as a SMILES string. The list shows a part of the results, in another mix than the full data. Records with an inconclusive call do not appear. Activity calls are given as the source filed them. Calls follow the shape of the dose curve; as a rule, active = well fitted curve in either direction with a large enough effect; inconclusive = small, poorly fitted or top-dose-only effect, or another doubt; inactive = flat fitted curve, though single readings scatter.

The record followed here is PubChem BioAssay AID595 (National Center for Advancing Translational Sciences (NCATS), 2007).
% is scaled to controls: 0 for no effect and ±100 for the full control effect.

In this assay the test system is Hsp90 C-terminal peptide / TPR2A (Hop) interaction, human. Put plainly: qHTS Assay for Disrupters of an Hsp90 Co-Chaperone Interaction. As to conditions: AlphaScreen TPR2A-His6 binding biotin-Hsp90 C-terminal peptide; at 57 µM (top of the series). From the text: NIH Chemical Genomics Center [NCGC]
NIH Molecular Libraries Screening Centers Network [MLSCN]
Hsp90 (heat shock protein 90) is the essential molecular chaperone and it accounts for 1-2% of all cytosolic proteins and is critical for the activity of diverse cellular proteins that are involved in a variety of cellular processes, including development, cell cycle, and steroid hormone signaling. Its client proteins include signaling kinases such as IGF1R, Akt, v-Src, Raf-1; regulators of cell survival such as Bcr-Abl; and transcription factors such as mutated p53, estrogen and progesterone receptors. Hsp90 has emerged as an important target for cancer treatment due to its essential role in maintaining transformation and regulating the function of oncogenic signaling proteins.
The in vivo function of Hsp90 is regulated by the binding and hydrolysis of ATP at its N-terminal. Geldanamycin binds to ATP site and inhibit Hsp90 function. […]
The assay was performed on 1536-well white plate (untreated solid bottom). […] Plates were read on EnVision (PerkinElmer, Boston, MA).TPR2A-His6 was produced using a bacteria expression system and purified using a well developed method (Ghosh et al., 2000). […] TPR2A-His6 binding to biotin-Hsp90 will bring streptavidin donor beads and nickel chelate acceptor beads (PerkinElmer) together and can be measured by Alpha reading by EnVision (PerkinElmer). […]
As to `O=[N+]([O-])C(Cl)(Cl)Cl`, the activity change, negative = inhibition is inactive: -1.72%.
Next, `CN(CCCl)CCCl`: inactive: -1.53%.
